According to the Kinase Knowledgebase extract (Sharma et al. 2016):
pIC50: −log10 of the molar value.

The chains behind the UniProt entries cited, without tags or fusion partners.
UniProt P00533, whole entry, looked up: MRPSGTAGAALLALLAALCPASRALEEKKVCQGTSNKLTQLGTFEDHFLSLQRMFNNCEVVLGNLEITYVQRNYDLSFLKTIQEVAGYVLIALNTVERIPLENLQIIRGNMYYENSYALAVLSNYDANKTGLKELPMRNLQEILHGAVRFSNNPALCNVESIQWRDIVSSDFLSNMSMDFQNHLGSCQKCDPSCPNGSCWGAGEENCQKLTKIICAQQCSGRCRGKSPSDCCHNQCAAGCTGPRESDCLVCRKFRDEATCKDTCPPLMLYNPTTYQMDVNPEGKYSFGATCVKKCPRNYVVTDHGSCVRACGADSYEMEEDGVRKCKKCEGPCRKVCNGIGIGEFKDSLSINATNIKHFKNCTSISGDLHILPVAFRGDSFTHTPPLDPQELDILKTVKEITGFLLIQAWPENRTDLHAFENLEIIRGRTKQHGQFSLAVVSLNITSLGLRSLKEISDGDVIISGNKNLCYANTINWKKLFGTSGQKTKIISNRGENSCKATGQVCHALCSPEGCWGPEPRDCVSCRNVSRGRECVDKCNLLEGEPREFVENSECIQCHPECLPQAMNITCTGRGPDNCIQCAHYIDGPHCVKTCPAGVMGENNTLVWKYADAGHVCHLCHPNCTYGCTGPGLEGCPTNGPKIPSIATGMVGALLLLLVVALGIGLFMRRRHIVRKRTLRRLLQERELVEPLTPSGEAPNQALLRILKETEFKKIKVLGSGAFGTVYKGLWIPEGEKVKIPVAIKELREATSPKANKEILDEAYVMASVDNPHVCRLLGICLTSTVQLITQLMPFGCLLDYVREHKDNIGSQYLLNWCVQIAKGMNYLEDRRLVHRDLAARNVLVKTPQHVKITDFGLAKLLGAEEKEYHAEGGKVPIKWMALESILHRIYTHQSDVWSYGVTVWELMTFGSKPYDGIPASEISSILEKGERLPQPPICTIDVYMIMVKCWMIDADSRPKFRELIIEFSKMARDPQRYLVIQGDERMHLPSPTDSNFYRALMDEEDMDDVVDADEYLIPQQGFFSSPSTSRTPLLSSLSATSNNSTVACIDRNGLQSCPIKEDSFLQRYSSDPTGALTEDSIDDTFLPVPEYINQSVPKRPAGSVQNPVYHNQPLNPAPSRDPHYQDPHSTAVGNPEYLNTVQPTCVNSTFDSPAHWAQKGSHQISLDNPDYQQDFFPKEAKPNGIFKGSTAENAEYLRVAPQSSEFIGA

Experiments:
EGFR (human) [1] = target: EGFR (human) (UniProt P00533)
EGFR (human) [2] = target: EGFR (human) (UniProt P00533); details: hn5

pIC50 (EGFR (human) [1]): 7.66 | pIC50 (EGFR (human) [2]): 6.19
SMILES: CS(=O)(=O)CCNCCCCOc1ccc2ncnc(Nc3ccc4c(cnn4Cc4cccc(F)c4)c3)c2c1
